Results on one molecule are retold here after BindingDB's records for doi:10.1021/jm991098z (Friedrich-Alexander University, 2000).

Sequences of proteins named here, by UniProt entry; tags and fusion partners are left off.
UniProt P20288, whole entry: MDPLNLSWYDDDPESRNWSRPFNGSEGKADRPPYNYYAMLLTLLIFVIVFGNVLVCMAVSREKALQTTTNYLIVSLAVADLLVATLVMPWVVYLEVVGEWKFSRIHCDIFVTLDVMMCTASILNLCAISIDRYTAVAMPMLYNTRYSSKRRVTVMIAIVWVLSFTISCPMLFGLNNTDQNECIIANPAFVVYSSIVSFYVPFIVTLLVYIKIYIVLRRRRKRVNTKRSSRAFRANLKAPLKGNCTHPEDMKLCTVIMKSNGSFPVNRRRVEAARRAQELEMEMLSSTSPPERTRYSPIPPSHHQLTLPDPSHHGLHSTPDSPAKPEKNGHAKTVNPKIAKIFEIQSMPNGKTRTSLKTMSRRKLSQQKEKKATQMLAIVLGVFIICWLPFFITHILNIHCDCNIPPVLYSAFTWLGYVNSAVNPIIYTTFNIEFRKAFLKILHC

The target in this experiment is D(2) dopamine receptor (Bos taurus, UniProt P20288). Briefly: Binding Affinity was tested on relative proportion of high Affinity Site of Bovine dopamine receptor D2. Tested for ability to displace the radioligand [3H]spiperone at the binding site.

`C#CC1=CCC(N(CCC)CCC)CC1` (stereo unspecified) [(4-Ethynyl-cyclohex-3-enyl)-dipropyl-amine]: the RH came out at 40%.
